## Measured affinities in a library of Ab-95 light chain variants

All variants were tested on one target, the spike HR2 peptide PDVDLGDISGINAS (SARS-CoV-2).

The variants keep the heavy chain, the linker and the frameworks of Ab-95 (scFv order VH, a 15-residue (Gly4Ser)3 linker, VL).
VH: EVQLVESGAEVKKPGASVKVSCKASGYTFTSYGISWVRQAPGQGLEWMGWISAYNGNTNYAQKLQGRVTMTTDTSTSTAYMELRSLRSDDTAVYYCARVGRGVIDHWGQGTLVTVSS
VL: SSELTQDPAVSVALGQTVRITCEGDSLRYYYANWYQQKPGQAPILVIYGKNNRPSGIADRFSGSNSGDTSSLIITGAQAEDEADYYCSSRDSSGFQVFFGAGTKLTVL

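Phage display of a naive human antibody library on the peptide gave the parent. Variants in AAYL52 differ from the parent at up to three CDR positions; double and triple changes were sampled at random. The assay is AlphaSeq: two haploid yeast populations carry antibody and antigen on their surface. Binding brings cells together so that they mate, and sequencing counts the barcode pairs among the diploids. A regression on co-assayed BCL2-family reference pairs converts the normalised counts of each replicate to an apparent Kd. Each pool was mated in three replicate cultures.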

Each variant is given by its three light chain CDRs, as the data file delimits them; those of the parent are EGDSLRYYYAN, GKNNRPS, SSRDSSGFQVF.
Every variant below is changed at R28 of the VL (sequential numbering).
Values are apparent Kd, the geometric mean of the replicates that gave a signal; lower means stronger binding.
Where no diploid with the target was found in any replicate, the entry reads "not detected": below detection, most likely a poor binder, though not proof of it.

| CDR-L1 | CDR-L2 | CDR-L3 | Kd (apparent) | seen in |
|---|---|---|---|---|
| HGDSLDYYYAN | GKNNRPS | SSRDSSGHQVF | 1.3 µM | 3/3 |
| EGDSLYYYYAN | GKNTWPS | SSRDSSGFQVF | 5.8 µM | 2/3 |
| EGDSLQYYYAN | GKNERPS | SSRDSSGFVVF | 580 nM | 3/3 |
| EGDSLQYYYAY | GRNNRPS | SSRDSSGFQVF | not detected | 0/3 |
| EGDSLGYYYAN | GKNNRPW | SSRDSSGFQVF | 190 nM | 3/3 |
| EGDSLGYRYAN | GKNNGPS | SSRDSSGFQVF | 600 nM | 3/3 |
| EGDSLQYYYAN | GKNNRNS | SSRDSSTFQVF | 8.0 µM | 3/3 |
| EGDLLEYYYAT | GKNNRPS | SSRDSSGFQVF | 2.2 µM | 1/3 |
| EGDSLWYNYAN | GKNNRPS | SSRDSSLFQVF | 29 nM | 3/3 |
| EGDSLNYYYAN | IKNNEPS | SSRDSSGFQVF | 550 nM | 3/3 |
| EGDSLQYYYAN | MKNGRPS | SSRDSSGFQVF | 3.9 µM | 1/3 |
| EGPSLYYYYAN | GKNNRPD | SSRDSSGFQVF | 68 nM | 3/3 |
| EGDSLKYYYAE | GKNNRPS | MSRDSSGFQVF | 4.7 µM | 2/3 |
| EGDSLIYYYIN | GKNNRPS | SSRLSSGFQVF | not detected | 0/3 |
| EGDSLYYYCAN | VKNNRPS | SSRDSSGFQVF | not detected | 0/3 |
| EGDSLLYYYGN | GKNNRPS | SERDSSGFQVF | 220 µM | 1/3 |
| EGDSLMYYPAN | GKNNRPS | SSSDSSGFQVF | 8.0 nM | 3/3 |
| MGDSLFYYYAN | GKNNRPV | SSRDSSGFQVF | 930 nM | 3/3 |
| CGDSLLYYYAR | GKNNRPS | SSRDSSGFQVF | 7.3 µM | 3/3 |
| EGDSLCYYYAN | GKNNRES | SSRDSSGFQVF | 3.0 µM | 3/3 |
| EGDSLKYYYAN | HKNNRPS | SSRDSSGFQSF | 1.9 µM | 3/3 |
| RGDSLQYYYAN | GKNNRPS | SSRVSSGFQVF | 2.6 µM | 2/3 |
| EGDSLMYYYAN | GANNRPS | SSRDSSHFQVF | 3.3 µM | 3/3 |
| HGDSLFYYYAN | GKLNRPS | SSRDSSGFQVF | 170 µM | 1/3 |
| EGDSLGYYYAP | GKNNRPS | SSRDRSGFQVF | 210 nM | 3/3 |
| IGDSLHYEYAN | GKNNRPS | SSRDSSGFQVF | 12 nM | 3/3 |
| EGDSLCYYYAN | GKNNRPS | SSRDSMVFQVF | 3.8 µM | 3/3 |
| LGDSLYYYYAN | GKNNRPV | SSRDSSGFQVF | 11 µM | 3/3 |
| EFDSLCYYYAN | GKNVRPS | SSRDSSGFQVF | 5.2 µM | 3/3 |
| EGDSLEYYYAN | GKNTRPS | SSRDSSGFQRF | 1.2 µM | 3/3 |
| EGDSLVYYNAN | GKNNRPS | SSRDSSGKQVF | 110 nM | 3/3 |
| EGDSLIYYYAN | GKNNRPY | SSRDSSGFQVH | 3.2 µM | 3/3 |
| EGDSLGYYYAC | GKNNRPS | SQRDSSGFQVF | 27 nM | 3/3 |
| EGDYLFYYYAN | GKNNRPS | SSCDSSGFQVF | 13 µM | 3/3 |
| EGDSLVYYYAN | GKNNRPS | SSDDSSGFQVD | not detected | 0/3 |
| EGDSLIYGYAN | GKNNRPS | SLRDSSGFQVF | 10 nM | 3/3 |
| EGGSLAYYYAN | GKNNRPS | SSRESSGFQVF | 610 nM | 3/3 |
| EGDSLKYRYAN | GKNNRPS | SSRDQSGFQVF | 9.2 nM | 3/3 |
| EGDSLCYQYAN | GKNNRPS | SSRDSTGFQVF | 20 nM | 3/3 |
| EGDSLCYYYGN | GKNNRPS | SSRDSFGFQVF | 6.4 µM | 1/3 |
| EGDSLGYYYAN | GDNNRPS | SSRDSSGFQVF | 27 nM | 3/3 |
| ELDSLHYYYAN | GKNNRPS | SSRDSSGFQVF | 11 µM | 3/3 |
| EGDSLNYYYAD | GKNNRPS | SSRDSSGDQVF | not detected | 0/3 |
| EGDSLSYYYAN | GKNNRPS | SSRDSSLFQVD | 1.3 µM | 3/3 |
| EGDSLCYYYAN | GKNNRPS | SSRSSSGFTVF | 2.9 µM | 3/3 |
| EGDSIWYYTAN | GKNNRPS | SSRDSSGFQVF | 42 nM | 3/3 |
| PGDSLFYYYAN | GKNNRPS | SSRDSSGFQVF | 1.2 µM | 3/3 |
| IGDSLIYYYAN | GQNNRPS | SSRDSSGFQVF | 360 nM | 3/3 |
| EGDSLNYLYAN | GKNTRPS | SSRDSSGFQVF | 140 nM | 3/3 |
| EGDSLKYYKAN | GKNNSPS | SSRDSSGFQVF | not detected | 0/3 |
| EGDSLSYYYAN | SKYNRPS | SSRDSSGFQVF | 17 µM | 1/3 |
| EGDSLAYYYAN | GKNNRPS | SIRDSSGEQVF | 3.8 µM | 1/3 |

For reference, the parent read 200 nM as the reference entry and 180 nM as a member of this library.
Empty control strains, which show no peptide, gave a signal in 28% of pairings with library AAYL52; the median was 8.2 µM and 95% of these signals were weaker than 800 nM. No background was subtracted.

The measurements come from Engelhart et al. 2022 (doi:10.1038/s41597-022-01779-4) through the FLAb antibody collection.